System: women with ovarian hyperandrogenism
Assay: Example 1: clinical, biochemical and endocrine-metabolic variables on flutamide, metformin or flutamide-metformin
Assay type: in vivo, human
Conditions: after 9 months, flutamide 250 mg/day, metformin 1275 mg/day, mean

CC(C)C(=O)Nc1ccc([N+](=O)[O-])c(C(F)(F)F)c1 [Flutamide, 2-methyl-N-[4-nitro-3(trifluoromethyl)phenyl] popanamide]
Androstenedione: 272 ng/dL | Body mass index: 22.3 Kg/m^2 | DHEAS: 231 µg/dL | Estradiol: 64 pg/mL | FSH: 4.6 IU/L | Ferriman & Gallwey score: 14.1 | Glucose: 83 mg/dL | HDL-cholesterol: 55 mg/dL | Insulin: 14.4 mU/L | Insulin Sensitivity (HOMA %): 69.9% | LDL-cholesterol: 106 mg/dL | LH: 8.8 IU/L | SHBG: 0.8 µg/dL | Testosterone: 108 ng/dL | Total cholesterol: 182 mg/dL | Triglycerides: 94 mg/dL | Peak 17-OHP (peak 17-hydroxyprogesterone after GnRH agonist): 216

Source: patent US20040157809A1, “Composition comprising an androgen receptor blocker and an insulin sensitizing agent and use thereof for treatment of polycystic ovary syndrome” (priority 2001, published 2004)
